This note sets out measurements from PMC9131926, “The Regulatory Protein ChuP Connects Heme and Siderophore-Mediated Iron Acquisition Systems Required for Chromobacterium violaceum Virulence” (Frontiers in Cellular and Infection Microbiology, 2022).

Chains of the proteins cited; added tags and fusions are not shown.
UniProt Q7NR89, entry or part of it: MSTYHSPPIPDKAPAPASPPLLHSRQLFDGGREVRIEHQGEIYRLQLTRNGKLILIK

This assay has as its target T1, ChuP (His-ChuP) (Chromobacterium violaceum, UniProt Q7NR89).
T1 construct: gene CV_3895
The assay can be described thus: biochemical.

The term Kd denotes the free concentration of one partner at which half of the binding sites on the other are occupied at equilibrium, for simple one-to-one binding. A low value points to higher affinity. In turn, `C=CC1=C(C)C2=Cc3c(C=C)c(C)c4[n]3[Fe]([Cl])[n]3c(c(C)c(CCC(=O)O)c3=CC3=NC(=C4)C(C)=C3CCC(=O)O)=CC1=N2` [Hm, hemin] gave a Kd of 18.4 ± 4.66 µM.
